The text below walks through data of ChEMBL document CHEMBL3351223, “Single Diastereomer of a Macrolactam Core Binds Specifically to Myeloid Cell Leukemia 1 (MCL1)” (ACS Med Chem Lett, 2014).

Chains of the proteins cited; added tags and fusions are not shown.
UniProt Q07820, whole entry: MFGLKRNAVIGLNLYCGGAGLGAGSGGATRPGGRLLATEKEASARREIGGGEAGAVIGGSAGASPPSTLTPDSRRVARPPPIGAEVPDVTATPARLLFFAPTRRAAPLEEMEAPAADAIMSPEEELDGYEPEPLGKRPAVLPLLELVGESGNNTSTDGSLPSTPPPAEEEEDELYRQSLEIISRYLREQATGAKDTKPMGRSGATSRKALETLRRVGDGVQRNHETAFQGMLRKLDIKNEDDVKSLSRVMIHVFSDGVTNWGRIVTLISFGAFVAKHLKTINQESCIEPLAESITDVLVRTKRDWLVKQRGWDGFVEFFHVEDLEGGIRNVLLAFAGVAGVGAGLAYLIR

The target in this experiment is Induced myeloid leukemia cell differentiation protein Mcl-1 (Homo sapiens, UniProt Q07820). Description: Inhibition of MCL1 (unknown origin).

The term IC50 denotes the midpoint of a concentration-inhibition curve. High values mean lower potency, low ones higher potency. `O=C(O)CSc1cc(NS(=O)(=O)c2ccc(Oc3ccccc3)cc2)c2ccccc2c1O` gave an IC50 of 180 nM.
